Measured values published in US11844813.

Molecular target: RBP4 displayed on the surface of yeast (Aga2p-HA-tag-(Gly4Ser)3 Linker-RBP4-c-myc Tag) (human) (UniProt P32781)
Assay: flow cytometry dot plot: yeast displaying RBP4 stained with 100 nM StrepII-tagged TTR (biotinylated anti-Strep II antibody, streptavidin-PE) against RBP4 expression (anti-HA); the negative control without TTR shows 0.1% in the same gate

% of cells in the TTR-binding gate: 16.3%
Substance: Human StrepII-tagged TTR (from UniProt P02766 21-147)
